Assay results published in publication PMC6156125, “Chemistry and Hypoglycemic Activity of GPR119 Agonist ZB-16” (Frontiers in Endocrinology, 2018).

Sequences of proteins named here, by UniProt entry; tags and fusion partners are left off.
UniProt Q8TDV5, whole entry: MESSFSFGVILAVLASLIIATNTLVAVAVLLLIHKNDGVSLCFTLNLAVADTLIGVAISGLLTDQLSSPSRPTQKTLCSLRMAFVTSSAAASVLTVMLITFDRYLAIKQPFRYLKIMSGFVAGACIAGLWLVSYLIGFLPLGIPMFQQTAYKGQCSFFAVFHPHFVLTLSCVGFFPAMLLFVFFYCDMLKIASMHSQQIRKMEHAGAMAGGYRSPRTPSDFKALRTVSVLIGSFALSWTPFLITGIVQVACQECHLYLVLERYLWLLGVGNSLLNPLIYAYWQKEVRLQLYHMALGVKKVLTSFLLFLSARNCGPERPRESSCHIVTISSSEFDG

Each molecule was assayed against human GPR119 (hGPR119) (Homo sapiens, UniProt Q8TDV5) (assay: Specific (agonistic) activity in vitro, cAMP increase (Lance Ultra cAMP kit) in CHO-K1 cells expressing hGPR119).

EC50 | Structure (SMILES)
0.537 µM | O=C1CSC2(C(=O)Nc3ccccc32)N1c1cccc(C(F)(F)F)c1 (stereo not shown)
2.74 µM | O=C(NCCc1ccccc1)c1nnc(C(Nc2ccccc2)c2ccc(Cl)cc2)o1 (stereo not shown)
19.4 µM | CCOC(=O)N1CCC(NC(=O)c2ccc3c(c2)N(CC)C(=O)c2ccccc2S3(=O)=O)CC1
11.7 µM | CCN1C(=O)c2ccccc2S(=O)(=O)c2ccc(C(=O)N3CCN(Cc4ccccc4)CC3)cc21
3.1 µM | CCCCNC(=O)c1ccc2c(c1)N(CC)C(=O)c1ccccc1S2(=O)=O
2.75 µM | NC(=O)c1c(NC(=O)C2CCCN(C(=O)c3ccc4c(c3)OCCO4)C2)sc2c1CCCC2 (stereo not shown)
3.3 µM | CCN(CCNC(=O)c1ccc2c(c1)N(CC)C(=O)c1ccccc1S2(=O)=O)c1ccccc1
2.2 µM | CCN1C(=O)c2ccccc2S(=O)(=O)c2ccc(C(=O)NCCc3ccc(OC)c(OC)c3)cc21
0.431 µM | CCc1ccc(NC(=O)NC2=C(C#N)C(CC)(CC)Cc3ccccc32)cc1
2.42 µM | CCN1C(=O)c2ccccc2S(=O)(=O)c2ccc(C(=O)N3CCC(Cc4ccccc4)CC3)cc21
